Assay results from patent US20100278776A1, “PHARMACEUTICAL COMPOSITIONS FOR MODULATING A KINASE CASCADE AND METHODS OF USE THEREOF” (Kinex Pharmaceuticals, LLC, priority 2007, published 2010).

Sequences of proteins named here, by UniProt entry; tags and fusion partners are left off.
UniProt P23458, whole entry: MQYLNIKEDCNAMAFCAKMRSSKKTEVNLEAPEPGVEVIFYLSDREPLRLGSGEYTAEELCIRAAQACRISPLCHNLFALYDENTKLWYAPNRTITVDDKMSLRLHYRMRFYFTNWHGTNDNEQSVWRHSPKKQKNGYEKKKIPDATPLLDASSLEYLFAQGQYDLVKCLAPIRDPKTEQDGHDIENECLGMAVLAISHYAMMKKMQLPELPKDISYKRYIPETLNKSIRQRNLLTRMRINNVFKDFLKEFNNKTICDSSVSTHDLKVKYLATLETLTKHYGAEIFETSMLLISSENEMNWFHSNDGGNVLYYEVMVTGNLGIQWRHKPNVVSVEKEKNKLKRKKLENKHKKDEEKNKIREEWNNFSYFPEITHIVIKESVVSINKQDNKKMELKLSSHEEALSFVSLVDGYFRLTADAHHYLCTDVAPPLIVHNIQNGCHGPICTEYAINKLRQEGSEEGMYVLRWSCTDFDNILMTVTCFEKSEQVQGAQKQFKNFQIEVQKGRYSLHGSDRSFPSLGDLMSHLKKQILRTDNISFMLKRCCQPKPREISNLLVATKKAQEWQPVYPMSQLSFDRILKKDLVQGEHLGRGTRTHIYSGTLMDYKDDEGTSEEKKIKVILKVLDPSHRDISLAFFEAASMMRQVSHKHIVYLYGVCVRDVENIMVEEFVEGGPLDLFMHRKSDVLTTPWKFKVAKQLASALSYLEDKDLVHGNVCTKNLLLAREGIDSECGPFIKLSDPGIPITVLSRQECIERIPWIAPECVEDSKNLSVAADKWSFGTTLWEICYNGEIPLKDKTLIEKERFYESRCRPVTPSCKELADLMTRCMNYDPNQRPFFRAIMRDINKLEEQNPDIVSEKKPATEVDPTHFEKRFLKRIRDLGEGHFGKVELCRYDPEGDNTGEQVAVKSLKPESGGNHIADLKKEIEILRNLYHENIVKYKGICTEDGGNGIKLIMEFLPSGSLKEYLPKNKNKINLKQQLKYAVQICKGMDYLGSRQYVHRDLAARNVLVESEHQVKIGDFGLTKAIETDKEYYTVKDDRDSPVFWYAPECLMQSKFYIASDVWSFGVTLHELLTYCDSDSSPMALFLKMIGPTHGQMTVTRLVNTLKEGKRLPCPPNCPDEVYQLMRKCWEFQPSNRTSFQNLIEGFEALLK
UniProt O60674, whole entry: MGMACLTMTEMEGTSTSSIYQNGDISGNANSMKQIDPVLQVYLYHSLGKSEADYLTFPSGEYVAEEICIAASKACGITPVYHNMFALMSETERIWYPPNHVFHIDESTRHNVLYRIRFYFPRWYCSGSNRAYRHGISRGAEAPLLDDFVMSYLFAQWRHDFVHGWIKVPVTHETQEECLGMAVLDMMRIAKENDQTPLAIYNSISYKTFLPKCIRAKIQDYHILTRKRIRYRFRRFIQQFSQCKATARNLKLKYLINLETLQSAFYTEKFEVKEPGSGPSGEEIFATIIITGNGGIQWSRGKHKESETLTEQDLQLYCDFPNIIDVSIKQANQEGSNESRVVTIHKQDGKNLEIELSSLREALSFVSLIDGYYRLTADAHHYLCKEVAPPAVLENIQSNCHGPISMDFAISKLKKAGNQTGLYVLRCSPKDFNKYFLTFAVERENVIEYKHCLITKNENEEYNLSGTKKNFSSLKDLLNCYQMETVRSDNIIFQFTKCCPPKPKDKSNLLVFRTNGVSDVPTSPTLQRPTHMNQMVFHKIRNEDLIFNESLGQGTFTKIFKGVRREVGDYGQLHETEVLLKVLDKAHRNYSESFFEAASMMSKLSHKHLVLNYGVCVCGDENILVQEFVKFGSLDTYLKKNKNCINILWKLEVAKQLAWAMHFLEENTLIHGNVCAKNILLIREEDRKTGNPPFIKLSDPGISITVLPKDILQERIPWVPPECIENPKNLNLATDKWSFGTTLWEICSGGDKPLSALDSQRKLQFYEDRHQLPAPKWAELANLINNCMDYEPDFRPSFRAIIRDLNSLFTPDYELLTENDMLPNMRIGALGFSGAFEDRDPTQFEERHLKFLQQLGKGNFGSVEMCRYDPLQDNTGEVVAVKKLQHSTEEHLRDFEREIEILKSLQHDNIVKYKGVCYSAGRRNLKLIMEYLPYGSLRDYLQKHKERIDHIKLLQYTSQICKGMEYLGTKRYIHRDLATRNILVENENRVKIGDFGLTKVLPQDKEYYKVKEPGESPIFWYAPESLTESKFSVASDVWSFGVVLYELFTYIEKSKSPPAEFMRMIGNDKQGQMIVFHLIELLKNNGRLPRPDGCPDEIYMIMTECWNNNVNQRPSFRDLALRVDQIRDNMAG

Tests used:
Src = Src (Homo sapiens, UniProt P12931, Y530F); assay: Src kinase activity in whole cells (auto- and transphosphorylation, PAGE/antibodies); assay type: cell-based
Caspase-3 cleavage = assay: Induction of apoptosis via Caspase 3 cleavage; assay type: cell-based; details: HT29 and c-Src527F/NIH-3T3 cells; listed as compound (I)
FAK Y397 = assay: FAK autophosphorylation in whole cells; assay type: cell-based; details: c-Src527F/NIH3T3 cells
[1] = system: EGFR tyrosine kinase (EGF Y845); assay: EGFR tyrosine kinase autophosphorylation in whole cells; assay type: cell-based; details: listed as compound (I)
JAK1 Y1022/1023 = JAK1 Y1022/1023 (Homo sapiens, UniProt P23458); assay: JAK1 phosphorylation in whole cells; details: listed as compound (I)
JAK2 Y1007/1008 = JAK2 Y1007/1008 (Homo sapiens, UniProt O60674); assay: JAK2 phosphorylation in whole cells; details: listed as compound (I)
[2] = system: PC3-MM2 prostate cancer cells; assay: Orthotopic prostate model for in vivo metastases; parameters: species or system Nu/Nu mice; details: PC3-MM2 orthotopic mouse model
[3] = Pharmacokinetic characterization; details: mice, rats and dogs
28-day toxicity study = details: dogs
[4] = Oral dosing pharmacokinetics in dogs; assay type: in vivo

In the case of `O=C(Cc1ccc(-c2ccc(OCCN3CCOCC3)cc2)cn1)NCc1ccccc1` [Compound (I): 2HCl, 2-(5-(4-(2-morpholinoethoxy)phenyl)pyridin-2-yl)-N-benzylacetamide dihydrochloride salt], the Src-Y416 autophosphorylation (Src; c-Src527F/NIH-3T3 and HT29 cells) is reported as “potent inhibitor”, the “phosphorylation of Paxillin Y-31 (Src transphosphorylation substrate)” value (Src; c-Src527F/NIH-3T3 cells) is reported as “inhibited Src trans-phosphorylation” and the IC50 (Src; read-out: IC50 for Src-catalyzed transphosphorylation of FAK, Shc, paxillin and Src kinase autophosphorylation, tumor cells) is reported as 20 nM. For the same molecule, the “phosphorylation of FAK Tyr 925 (Src transphosphorylation substrate)” value (Src; whole cells) was “inhibited Src trans-phosphorylation”, the “phosphorylation of Shc Y239/240 (Src transphosphorylation substrate)” value (Src; whole cells) was “inhibited Src trans-phosphorylation” and the “phosphorylation of Shc Y239/240 (Src transphosphorylation substrate)” value (Src; whole cells, listed as compound (I)) was “potent inhibitor”. For the same molecule, the “induction of apoptosis (Caspase-3 cleavage)” value (Caspase-3 cleavage) was “stimulate Caspase-3 and PARP cleavage”, the “FAK autophosphorylation (Y397)” value (FAK Y397) was “no inhibition” and the “EGFR tyrosine kinase autophosphorylation” value [1] was “does not inhibit”. The “phosphorylation of JAK1 Y1022/1023” value (JAK1 Y1022/1023) was “does not inhibit”, the “phosphorylation of JAK2 Y1007/1008” value (JAK2 Y1007/1008) was “does not inhibit” and the “primary tumor growth and lymph node metastasis” value [2] was “strong inhibition of both primary tumor growth as well as lymph node metastasis”. The pharmacokinetic characterization [3] was “orally bioavailable and has dose-related increases in drug exposure and maximum plasma concentration”, the “finding considered potentially test article-related” value (28-day toxicity study; 0.5 mg/kg/dose BID) was “minimally to mildly increased alanine aminotransferase” and the minimal toxic level (28-day toxicity study; 28-day, oral gavage BID) was 0.5 mg/kg/dose. The half-life range [4] was 5 to 8 h.

Counter-ions that a name gives are not always drawn.
